# Permeability data for macrocyclic peptides

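Conditions beyond the assay type are not listed; see the original paper. The list need not hold all peptides of the study. Entries at the database's floor value (log10 P of -10) are not listed.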

PAMPA is the parallel artificial membrane permeability assay, which has no cells and reads passive diffusion.
P is given in units of 10^-6 cm/s (from log10 values with two decimals); larger means faster passage.

{"smiles": "C[C@@H]1NC(=O)[C@H](Cc2ccccc2)NC(=O)CN(Cc2ccccc2)C(=O)[C@H]2CCCN2C(=O)CN(Cc2ccccc2)C(=O)CN(Cc2ccccc2)C1=O", "PAMPA (10^-6 cm/s)": "0.16"}
{"smiles": "CC(C)C[C@H]1C(=O)N(C)[C@@H](CC(C)C)C(=O)N2CCC[C@H]2C(=O)N(Cc2ccccc2)CC(=O)N[C@@H](Cc2ccccc2)C(=O)N[C@@H](Cc2ccccc2)CC(=O)N1C", "PAMPA (10^-6 cm/s)": "5.9"}
{"smiles": "CC(C)C[C@@H]1NC(=O)[C@@H]2CCCN2C(=O)C[C@H](Cc2ccccc2)NC(=O)[C@@H](CC(C)C)N(C)C(=O)C[C@H](Cc2ccccc2)NC(=O)[C@H](Cc2ccccc2)NC1=O", "PAMPA (10^-6 cm/s)": "1.9"}
{"smiles": "CCCN1CC(=O)N(Cc2ccccc2)CC(=O)N[C@H](CC(C)C)C(=O)N2CCC[C@@H]2C(=O)N(Cc2ccccc2)CC(=O)N[C@@H](Cc2ccccc2)C(=O)N2CCC[C@H]2C1=O", "PAMPA (10^-6 cm/s)": "2.3"}
{"smiles": "CC(C)C[C@H]1C(=O)N[C@@H](Cc2ccccc2)C(=O)N2CCC[C@@H]2C(=O)N(C)[C@@H](C)C(=O)N(Cc2ccccc2)CC(=O)N(Cc2ccccc2)CC(=O)N2CCC[C@H]2C(=O)N1C", "PAMPA (10^-6 cm/s)": "6.5"}
{"smiles": "CC(C)C[C@H]1C(=O)N(Cc2ccccc2)CC(=O)N2CCC[C@@H]2C(=O)N(Cc2ccccc2)CC(=O)N[C@@H](Cc2ccccc2)C(=O)N2CCC[C@H]2C(=O)N[C@@H](Cc2ccccc2)CC(=O)N1C", "PAMPA (10^-6 cm/s)": "0.072"}
{"smiles": "CC(C)C[C@H]1C(=O)N(Cc2ccccc2)CC(=O)N2CCC[C@H]2C(=O)N(Cc2ccccc2)CC(=O)N[C@@H](Cc2ccccc2)C(=O)N[C@@H](C)C(=O)N1C", "PAMPA (10^-6 cm/s)": "3.2"}
{"smiles": "CC(C)C[C@@H]1C(=O)N2CCC[C@H]2C(=O)N(C)[C@H](CC(C)C)C(=O)N[C@@H](Cc2ccccc2)C(=O)N2CCC[C@H]2C(=O)N[C@H](C)C(=O)N(Cc2ccccc2)CC(=O)N1C", "PAMPA (10^-6 cm/s)": "1.9"}
{"smiles": "CC(C)C[C@@H]1C(=O)N(Cc2ccccc2)CC(=O)N2CCC[C@H]2C(=O)N(Cc2ccccc2)CC(=O)N[C@@H](Cc2ccccc2)C(=O)N2CCC[C@@H]2C(=O)N[C@H](C)C(=O)N1C", "PAMPA (10^-6 cm/s)": "0.59"}
{"smiles": "CC(C)C[C@H]1C(=O)N2CCC[C@@H]2C(=O)N(C)[C@@H](CC(C)C)C(=O)N[C@@H](Cc2ccccc2)C(=O)N2CCC[C@H]2C(=O)N[C@@H](C)C(=O)N(Cc2ccccc2)CC(=O)N1C", "PAMPA (10^-6 cm/s)": "2.7"}
{"smiles": "CC(C)C[C@H]1NC(=O)C[C@H](Cc2ccccc2)NC(=O)[C@@H]2CCCN2C(=O)[C@H](Cc2ccccc2)NC(=O)CN(Cc2ccccc2)C(=O)[C@@H]2CCCN2C(=O)C[C@H](Cc2ccccc2)NC1=O", "PAMPA (10^-6 cm/s)": "0.6"}
{"smiles": "CCCN1CC(=O)N[C@H](CC(C)C)C(=O)N[C@@H](Cc2ccccc2)CC(=O)N2CCC[C@H]2C(=O)N(C)[C@H](CC(C)C)C(=O)N[C@@H](Cc2ccccc2)C1=O", "PAMPA (10^-6 cm/s)": "2.1"}
{"smiles": "CCCN1CC(=O)N[C@@H](CC(C)C)C(=O)N(C)[C@@H](CC(C)C)C(=O)N2CCC[C@H]2C(=O)N(Cc2ccccc2)CC(=O)N[C@@H](Cc2ccccc2)C1=O", "PAMPA (10^-6 cm/s)": "10"}
{"smiles": "CC(C)C[C@@H]1C(=O)N[C@@H](Cc2ccccc2)CC(=O)N2CCC[C@H]2C(=O)N(Cc2ccccc2)CC(=O)N[C@@H](Cc2ccccc2)C(=O)N(C)[C@H](C)C(=O)N1C", "PAMPA (10^-6 cm/s)": "2.9"}
{"smiles": "CC(C)C[C@H]1C(=O)N[C@@H](Cc2ccccc2)C(=O)N2CCC[C@@H]2C(=O)N(C)[C@@H](C)C(=O)N(Cc2ccccc2)CC(=O)N(Cc2ccccc2)CC(=O)N2CCC[C@@H]2C(=O)N1C", "PAMPA (10^-6 cm/s)": "1.3"}
{"smiles": "CC(C)C[C@H]1C(=O)N2CCC[C@H]2C(=O)N(C)[C@@H](CC(C)C)C(=O)N[C@@H](Cc2ccccc2)C(=O)N(C)[C@H](C)C(=O)N(Cc2ccccc2)CC(=O)N1C", "PAMPA (10^-6 cm/s)": "14"}
{"smiles": "CC(C)C[C@@H]1NC(=O)C[C@H](Cc2ccccc2)NC(=O)[C@H](Cc2ccccc2)NC(=O)CN(Cc2ccccc2)C(=O)[C@@H]2CCCN2C(=O)CN(Cc2ccccc2)C1=O", "PAMPA (10^-6 cm/s)": "1.7"}

A selection of 2 entries from above:

{"smiles": "CC(C)C[C@H]1C(=O)N(C)[C@@H](CC(C)C)C(=O)N2CCC[C@H]2C(=O)N(Cc2ccccc2)CC(=O)N[C@@H](Cc2ccccc2)C(=O)N[C@@H](Cc2ccccc2)CC(=O)N1C", "PAMPA (10^-6 cm/s)": "5.9"}
{"smiles": "CC(C)C[C@H]1C(=O)N[C@@H](Cc2ccccc2)C(=O)N2CCC[C@@H]2C(=O)N(C)[C@@H](C)C(=O)N(Cc2ccccc2)CC(=O)N(Cc2ccccc2)CC(=O)N2CCC[C@H]2C(=O)N1C", "PAMPA (10^-6 cm/s)": "6.5"}

Collected by the curators of CycPeptMPDB (Li et al. 2023) from Townsend et al. 2020, doi:10.26434/chemrxiv.13335941.v1.